Measured values: US6310072A (priority 1995, dated 2001)

Sequences of proteins named here, by UniProt entry; tags and fusion partners are left off. A change or cut given only in a name is not applied to a line headed by its entry.
UniProt P41144: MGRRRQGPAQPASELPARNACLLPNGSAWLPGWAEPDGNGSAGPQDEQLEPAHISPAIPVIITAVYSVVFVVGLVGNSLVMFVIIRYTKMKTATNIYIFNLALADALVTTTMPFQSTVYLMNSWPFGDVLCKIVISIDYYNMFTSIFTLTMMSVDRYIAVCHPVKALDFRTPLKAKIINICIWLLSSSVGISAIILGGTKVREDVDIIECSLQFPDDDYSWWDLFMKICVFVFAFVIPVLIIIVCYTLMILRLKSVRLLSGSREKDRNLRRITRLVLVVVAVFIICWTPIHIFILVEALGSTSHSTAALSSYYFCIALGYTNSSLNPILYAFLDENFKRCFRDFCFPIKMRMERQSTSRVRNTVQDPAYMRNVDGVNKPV

Molecular target: T1, κ1-opioid receptor (Cavia porcellus, UniProt P41144)
T1 construct: from tissue; host or cells: whole brain membranes of adult male albino guinea-pigs
Assay: Radioligand binding assay, displacement of [3H]U69,593 in guinea-pig brain membranes

Work on CCC12CCN(CC3(O)CC3)C(Cc3ccc(O)cc31)C2(C)C (stereo not shown) [bremazocine] yielded a Ki of 0.4 nM.
